Consider 1 compound from paper PMC3724849 (PLoS ONE, 2013).

Sequences of proteins named here, by UniProt entry; tags and fusion partners are left off.
UniProt Q969S8, whole entry, species assumed: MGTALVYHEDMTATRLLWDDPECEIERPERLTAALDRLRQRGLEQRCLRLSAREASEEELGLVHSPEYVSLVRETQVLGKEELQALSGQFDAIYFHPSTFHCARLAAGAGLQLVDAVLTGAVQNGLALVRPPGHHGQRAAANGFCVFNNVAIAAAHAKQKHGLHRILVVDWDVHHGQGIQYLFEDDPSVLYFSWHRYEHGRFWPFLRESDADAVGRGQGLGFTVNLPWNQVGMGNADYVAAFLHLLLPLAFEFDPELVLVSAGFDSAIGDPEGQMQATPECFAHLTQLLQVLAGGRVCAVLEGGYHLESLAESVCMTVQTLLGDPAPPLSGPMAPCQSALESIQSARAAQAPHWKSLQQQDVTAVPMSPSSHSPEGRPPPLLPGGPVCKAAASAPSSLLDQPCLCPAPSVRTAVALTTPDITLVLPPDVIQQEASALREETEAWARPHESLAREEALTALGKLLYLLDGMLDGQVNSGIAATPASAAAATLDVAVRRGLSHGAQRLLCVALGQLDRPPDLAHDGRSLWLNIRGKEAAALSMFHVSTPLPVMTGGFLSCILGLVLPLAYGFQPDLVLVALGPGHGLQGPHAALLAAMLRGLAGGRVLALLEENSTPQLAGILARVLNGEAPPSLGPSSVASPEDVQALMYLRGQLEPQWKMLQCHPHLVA

The nature of data set [1]: Pharmacokinetic study after single i.p. injection. Conditions: 50 mg/kg i.p.; LLOQ = 0.018 µM.
A further data set concerns the target HDAC10 (Homo sapiens, UniProt Q969S8). The data set is described as follows: biochemical.

For the compound `O=C(CCCCCCC(=O)Nc1ccccc1)NO` [SAHA, Suberoylanilide hydroxamic acid], in data set [1], the “SAHA in the brain at time points beyond 1 hour” value is “undetectable”. Besides, the IC50 against HDAC10 is 29 nM.
